System: OVCAR-3
Experiment: Alamar blue cytotoxicity assay
Format: cell-based
Conditions: Homo sapiens, 72 h, read-out: IC50 and 95%CI
Protocol: The Alamar blue assay was used to determine cell viability as previously described. Cells were seeded into 96-well plates at a density of 7 × 10^3 cells per well for adherent cells or 3 × 10^4 cells per well for suspended cells. The drug was added to each well after 24 h of incubation for adherent cells or immediately for suspended cells and incubated for an additional 72 h. […] Each well received 100 µM resazurin (Sigma-Aldrich Co. St. Louis, MO, United States) four (for cell lines) or 24 (for primary culture) h before the end of the incubation. A SpectraMax 190 Microplate Reader (Molecular Devices, Sunnyvale, CA, USA) was used to measure absorbance at 570 and 600 nm.

Structure (SMILES): COc1cccc2c1C(=O)c1c(O)c3c(c(O)c1C2=O)C[C@@](O)(C(=O)CO)C[C@@H]3O[C@H]1C[C@H](N)[C@H](O)[C@H](C)O1 [DOX, Doxorubicin]
- IC50: 1.01 µM

From publication PMC10724293, “New ruthenium-xanthoxylin complex eliminates colorectal cancer stem cells by targeting the heat shock protein 90 chaperone” (Cell Death & Disease, 2023)
